The values below come from PubChem BioAssay AID1346985 (Tox21, 2019).

The list shows a part of the results, in another mix than the full data. Some of these compounds have results that are not shown, active ones among them. Inconclusive results are not listed. Activity calls are given as the source filed them. Calls come from the whole dose curve; as a rule, active = well fitted activation curve with a large enough effect in the repeat runs; inconclusive = weak or mixed curves; inactive = flat fitted curve, though single readings scatter.
Potency is the fitted concentration of half-maximal effect.

In this assay the target is Nuclear receptor subfamily 1 group I member 2 (Homo sapiens) (UniProt O75469). Kind of assay: Human pregnane X receptor (PXR) activation by small molecules, qHTS assay. Note: nearly all actives have a fitted effect of over 40% in size. To be noted: DPX-2 HepG2 CYP3A4-luciferase, 24 h. From the text: National Center for Advancing Translational Sciences [NCATS]
NIH Chemical Genomics Center [NCGC]
U.S. Environmental Protection Agency [EPA]
National Institutes of Environmental Health Sciences [NIEHS]
National Toxicology Program [NTP]
The Pregnane X receptor (PXR), a ligand activated nuclear receptor plays a critical role in the regulation of genes involved in drug metabolism and transporters. Activation of PXR may be involved in the unwanted adverse drug-drug interactions. […] Therefore, identification of compounds with the potential for PXR activation can be of importance in improving the efficacy of drugs with less toxicity and avoiding drug-drug interactions.
DPX-2 (Puracyp, Inc.) cell lines, used for screening against human PXR activation has HepG2 cells co-transfected with a PXR response element and a luciferase construct containing CYP3A4 promoter. Increase in luciferase activity can be used to identify the compounds that activate the PXR pathway.
DPX-2 cells were dispensed at 2,000 cells per well in 5uL of assay medium into white, solid-bottom 1536-well plates using a Multidrop Combi dispenser (Thermo Scientific). […] Then 5ul One-Glo assay reagent (Promega) was added to each plate by a Flying Reagent Dispenser (FRD, Aurora Discovery) and following 30 min incubation at room temperature, luciferase activity was quantified on a ViewLux plate reader (Perkin Elmer).
Background: In qHTS, concentration-response curves come from the screen itself.
In the case of `CN1CCCC(OC(=O)C(O)(c2ccccc2)c2ccccc2)C1` (stereo unspecified), the Potency is active: 15.8 µM.
